{"source": "patent US20080045495A1", "about": "“Treatment of Patients with Cystic Disease by Alteration of Fibrocystin Proteolysis” (BOARD OF REGENTS, THE UNIVERSITY OF TEXAS SYSTEM, priority 2006, published 2008)", "test_system": "fibrocystin cleavage in HEK-293(m3) cells", "settings": "100 μM carbachol, 16 hours, FIG. 4E", "protocol": "FIG. 4 A is an image of a gel illustrating mIMCD3/FC cells were grown for 4 days and incubated with 0.1 μM thapsigargin (lane 2), 5 mM caffeine (lane 3), 75 μM dantrolene (lane 5), 200 μM ruthenium red (lane 7), or no additions (lanes 1, 4 and 6). After 2 hours, media were replaced with media lacking serum but containing the same supplements, and, in addition, 10 nM mifeprisone. Cell lysates were prepared after 24 hours and analyzed by immunoblotting using anti-V5 antibody. FIG. 4B is a graph of mIMCD-3 cells were transfected with 0.2 μg pG5-luc and either 0.2 μg pFC-GV or 0.2 μg pLDLR-GV. After 24 hours, cells were incubated in serum-free media in the presence or absence of 75 μM dantrolene. Relative luciferase activity was determined after 48 h. Data presented are mean ±SE of three separate transfections. The fibrocystin/Gal4-VP16 fusion protein is shown schematically below. Shaded box indicates the transmembrane segment; filled boxes indicate the N-terminal signal sequence and the C-terminal Gal4-VP16 fusion protein. […] Cells were lysed after 16 h, and extracts were analyzed by immunoblotting using anti-V5 antibody. […] Luciferase activity was measured after 12 hours. […] Cells were lysed after 16 hours, and extracts were analyzed by immunoblotting using anti-V5 antibody."}
{"smiles": "C[N+](C)(C)CCOC(N)=O", "note": "[carbachol]", "values": [{"measurement": "fibrocystin cleavage", "result": "induced fibrocystin cleavage"}]}
